# Data reported in patent US10793549B2, “Sulfuryl-substituted benzoheterocyclic derivative, preparation method and medical use thereof” (SHANGHAI HAIYAN PHARMACEUTICAL TECHNOLOGY CO., LTD., priority 2016, dated 2020).
# Sequences of proteins named here, by UniProt entry; tags and fusion partners are left off.
# UniProt Q15910, whole entry Y641F: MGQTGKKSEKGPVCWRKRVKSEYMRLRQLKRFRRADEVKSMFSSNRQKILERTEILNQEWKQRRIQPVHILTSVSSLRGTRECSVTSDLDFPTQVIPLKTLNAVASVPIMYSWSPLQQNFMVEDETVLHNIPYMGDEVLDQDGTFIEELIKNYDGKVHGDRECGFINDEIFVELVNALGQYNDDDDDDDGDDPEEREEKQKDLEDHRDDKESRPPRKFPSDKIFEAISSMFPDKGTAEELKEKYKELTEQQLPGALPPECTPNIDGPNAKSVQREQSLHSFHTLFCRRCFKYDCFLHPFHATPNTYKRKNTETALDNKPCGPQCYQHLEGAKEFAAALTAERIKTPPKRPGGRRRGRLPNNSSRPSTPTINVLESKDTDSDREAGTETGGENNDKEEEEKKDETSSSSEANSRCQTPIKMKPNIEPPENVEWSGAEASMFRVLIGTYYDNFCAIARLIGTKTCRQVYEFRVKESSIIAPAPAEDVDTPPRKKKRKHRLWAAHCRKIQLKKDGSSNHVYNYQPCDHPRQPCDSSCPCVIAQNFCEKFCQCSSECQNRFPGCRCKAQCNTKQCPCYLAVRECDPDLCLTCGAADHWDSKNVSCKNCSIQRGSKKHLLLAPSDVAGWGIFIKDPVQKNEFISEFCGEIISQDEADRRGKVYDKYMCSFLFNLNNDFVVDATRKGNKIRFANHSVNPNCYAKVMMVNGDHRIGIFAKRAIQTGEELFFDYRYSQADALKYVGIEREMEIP
# UniProt Q6ZN18, whole entry partner: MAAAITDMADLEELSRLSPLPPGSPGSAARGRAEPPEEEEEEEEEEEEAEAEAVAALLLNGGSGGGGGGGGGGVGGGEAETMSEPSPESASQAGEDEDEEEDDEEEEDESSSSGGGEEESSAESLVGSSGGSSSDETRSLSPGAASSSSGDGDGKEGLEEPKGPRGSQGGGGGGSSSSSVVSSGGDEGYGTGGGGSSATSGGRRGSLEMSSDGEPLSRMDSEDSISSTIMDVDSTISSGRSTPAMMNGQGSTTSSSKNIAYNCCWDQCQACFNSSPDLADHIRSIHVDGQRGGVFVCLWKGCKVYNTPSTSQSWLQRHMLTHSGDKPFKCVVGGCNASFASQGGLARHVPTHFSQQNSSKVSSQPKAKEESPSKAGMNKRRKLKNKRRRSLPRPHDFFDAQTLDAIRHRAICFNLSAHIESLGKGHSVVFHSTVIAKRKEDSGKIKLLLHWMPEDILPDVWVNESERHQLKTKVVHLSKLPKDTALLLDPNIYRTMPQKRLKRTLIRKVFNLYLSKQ
# UniProt O75530, whole entry partner: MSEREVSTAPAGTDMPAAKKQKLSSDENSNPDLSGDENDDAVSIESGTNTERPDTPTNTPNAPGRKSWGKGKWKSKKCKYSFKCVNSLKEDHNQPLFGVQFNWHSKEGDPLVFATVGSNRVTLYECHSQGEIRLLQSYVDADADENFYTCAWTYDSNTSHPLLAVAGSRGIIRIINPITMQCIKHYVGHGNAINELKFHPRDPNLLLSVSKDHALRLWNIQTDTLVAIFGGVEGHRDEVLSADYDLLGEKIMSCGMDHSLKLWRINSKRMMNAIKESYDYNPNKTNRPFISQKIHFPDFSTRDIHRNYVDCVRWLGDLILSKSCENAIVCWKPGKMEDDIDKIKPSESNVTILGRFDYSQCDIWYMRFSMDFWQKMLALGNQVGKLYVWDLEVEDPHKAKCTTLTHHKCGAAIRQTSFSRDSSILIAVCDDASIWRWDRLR
# UniProt Q15022, whole entry partner: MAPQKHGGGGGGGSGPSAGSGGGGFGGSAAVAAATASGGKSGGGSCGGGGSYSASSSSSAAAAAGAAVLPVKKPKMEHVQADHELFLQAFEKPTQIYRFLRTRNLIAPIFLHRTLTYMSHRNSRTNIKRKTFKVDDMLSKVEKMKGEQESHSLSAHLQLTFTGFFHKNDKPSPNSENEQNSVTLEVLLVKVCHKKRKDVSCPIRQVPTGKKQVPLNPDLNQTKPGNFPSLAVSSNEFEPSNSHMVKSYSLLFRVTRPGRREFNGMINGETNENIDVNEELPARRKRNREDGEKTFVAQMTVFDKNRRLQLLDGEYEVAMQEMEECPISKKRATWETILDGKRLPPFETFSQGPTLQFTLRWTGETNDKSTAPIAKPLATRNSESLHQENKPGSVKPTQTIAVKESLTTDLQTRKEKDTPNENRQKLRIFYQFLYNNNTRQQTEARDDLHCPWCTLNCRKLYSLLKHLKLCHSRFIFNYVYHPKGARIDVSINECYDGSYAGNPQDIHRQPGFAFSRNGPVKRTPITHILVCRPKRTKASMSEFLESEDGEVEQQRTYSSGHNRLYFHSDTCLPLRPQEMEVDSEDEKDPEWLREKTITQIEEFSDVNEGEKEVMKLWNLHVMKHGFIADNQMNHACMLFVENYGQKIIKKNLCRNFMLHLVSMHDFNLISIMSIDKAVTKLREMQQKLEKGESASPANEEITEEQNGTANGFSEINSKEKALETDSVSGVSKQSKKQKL
# UniProt Q09028, whole entry partner: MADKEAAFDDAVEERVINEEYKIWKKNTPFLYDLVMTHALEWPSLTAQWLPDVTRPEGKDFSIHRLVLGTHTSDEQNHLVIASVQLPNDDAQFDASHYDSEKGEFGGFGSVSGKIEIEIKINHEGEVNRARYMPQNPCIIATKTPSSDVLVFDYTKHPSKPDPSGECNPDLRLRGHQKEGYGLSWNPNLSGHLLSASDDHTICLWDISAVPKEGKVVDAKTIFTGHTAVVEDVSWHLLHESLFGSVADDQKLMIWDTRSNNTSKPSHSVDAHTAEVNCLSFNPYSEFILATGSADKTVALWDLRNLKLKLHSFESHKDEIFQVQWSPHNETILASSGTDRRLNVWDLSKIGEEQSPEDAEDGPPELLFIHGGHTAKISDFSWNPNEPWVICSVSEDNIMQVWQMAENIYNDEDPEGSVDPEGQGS
# Columns and labels:
# [1] = biological target: EZH2 Y641F (Homo sapiens (Human), UniProt Q15910, Y641F); test: In vitro methyltransferase activity test (LANCE Ultra); details: read-out: EZH2 Y641F IC50; Recombinant PRC2 (EZH2-Y641F), 2.5 μM SAM/250 nM H3(1-50)K27me1, 3 hours, room temperature
# [2] = system: Pfeiffer cells; test: Cell proliferation test (Cell counting kit-8, 6 days); format: cell-based; details: read-out: Pfeiffer IC50; Pfeiffer (CRL-2632) cells, culture for 6 days, viable cells by Cell counting kit-8
# Experimental: The used cell lines Pfeiffer (CRL-2632), suDHL-6 (CRL-2959) and suDHL-10 (CRL-2963) were purchased from American Type Culture Collection (ATCC). All cell lines were cultured in RPMI-1640 medium (Gibco) containing 10% fetal bovine serum (Gibco). The cultured cells were collected by centrifugation and the cell density was measured on a CounterStar counter. Appropriate number of cells were then seeded in a 96-well culture plate and incubated overnight. Compounds to be tested were diluted by 8 gradient points in a ratio of 1:3 and added into the corresponding wells. After continuing to culture for 6 days, the number of viable cells was measured with Cell counting kit-8, and the absorbance value was read on Tecan infinite pro. The IC50 was calculated by fitting a four-parameter model in the XLfit software.
Compound,IC50 [1] [nM],IC50 [2] [nM]
C=CCC1(S(=O)(=O)n2cc(C)c3c(C(=O)NCc4c(OC)cc(C)[nH]c4=O)cc(-c4cncc(F)c4)cc32)CC1,31,180
C=CCC1(S(=O)(=O)n2cc(C)c3c(C(=O)NCc4c(OC(C)C)cc(C)[nH]c4=O)cc(-c4ccc(N5CCN(C)CC5)nc4)cc32)CC1,36,–
C=CCC1(S(=O)(=O)n2cc(C)c3c(C(=O)NCc4c(OC)cc(C)[nH]c4=O)cc(N4CCN(C)C(C)C4)cc32)CC1 (stereo not drawn),23,209
C=CCC1(S(=O)(=O)n2cc(C)c3c(C(=O)NCc4c(OC)cc(C)[nH]c4=O)cc(-c4cncnc4)cc32)CC1,43,72
C=CCC1(S(=O)(=O)n2cc(C)c3c(C(=O)NCc4c(OC)cc(C)[nH]c4=O)cc(-c4cnc(N5CCN(C)CC5)nc4)cc32)CC1,21,12
C=CCC1(S(=O)(=O)n2cc(C)c3c(C(=O)NCc4c(C)cc(C)[nH]c4=O)cc(-c4ccc(N5CCN(CC(F)(F)F)CC5)nc4)cc32)CC1,35,49
C=CCC1(S(=O)(=O)n2cc(C)c3c(C(=O)NCc4c(OC)cc(C)[nH]c4=O)cc(-c4cccnc4)cc32)CC1,24,66
C=CCC1(S(=O)(=O)n2cc(C)c3c(C(=O)NCc4c(OC)cc(C)[nH]c4=O)cc(-c4ccc(N5CCN(CC(F)(F)F)CC5)nc4)cc32)CC1,21,27
C=CCC1(S(=O)(=O)n2cc(C)c3c(C(=O)NCc4c(OC(C)C)cc(C)[nH]c4=O)cc(-c4ccc(CN(C)C)cc4)cc32)CC1,45,242
C=CCC1(S(=O)(=O)n2cc(C)c3c(C(=O)NCc4c(OC)cc(C)[nH]c4=O)cc(-c4cn[nH]c4)cc32)CC1,37,–
C=CCC1(S(=O)(=O)n2cc(C)c3c(C(=O)NCc4c(OC)cc(C)[nH]c4=O)cc(/C=C/c4ccccn4)cc32)CC1,36,177
C=CCCS(=O)(=O)n1cc(C)c2c(C(=O)NCc3c(C)cc(C)[nH]c3=O)cc(-c3ccc(N4CCN(C)CC4)nc3)cc21,145,1650
C=CCC1(S(=O)(=O)n2cc(C)c3c(C(=O)NCc4c(OC)cc(C)[nH]c4=O)cc(-c4cnc(N5CCOCC5)nc4)cc32)CC1,31,73
C=CCC1(S(=O)(=O)n2cc(C)c3c(C(=O)NCc4c(OC)cc(C)[nH]c4=O)cc(N4CCN(CC(F)(F)F)CC4)cc32)CC1,27,200
Cc1cc(C)c(CNC(=O)c2cc(-c3ccc(CN(C)C)cc3)cc3c2C(C)CN3S(=O)(=O)C(C)C)c(=O)[nH]1 (stereo not drawn),94,1050
C=CCC1(S(=O)(=O)n2cc(C)c3c(C(=O)NCc4c(OC)cc(C)[nH]c4=O)cc(-c4ccc(CN(C)C)nc4)cc32)CC1,17,99
C=CCC1(S(=O)(=O)n2cc(C)c3c(C(=O)NCc4c(OC)cc(C)[nH]c4=O)cc(-c4ccnc(N5CCN(C)CC5)c4)cc32)CC1,33,–
C=CCC1(S(=O)(=O)n2cc(C)c3c(C(=O)NCc4c(OC)cc(C)[nH]c4=O)cc(-c4ccc(N(C)C)nc4)cc32)CC1,31,64
C=CCC1(S(=O)(=O)n2cc(C)c3c(C(=O)NCc4c(Cl)cc(C)[nH]c4=O)cc(-c4ccc(N5CCN(C)CC5)nc4)cc32)CC1,32,87
C=CCC1(S(=O)(=O)n2cc(C)c3c(C(=O)NCc4c(OC)cc(C)[nH]c4=O)cc(N4CCC(N(C)C)CC4)cc32)CC1,27,–

# Now those with a lower IC50 [1], led by results:
IC50 [1] [nM],Compound,IC50 [2] [nM]
15,C=CCC1(S(=O)(=O)n2cc(C)c3c(C(=O)NCc4c(C)cc(C)[nH]c4=O)cc(-c4cnc(N5CCN(C(C)C)CC5)nc4)cc32)CC1,130
15,C=CCC1(S(=O)(=O)n2cc(C)c3c(C(=O)NCc4c(OC)cc(C)[nH]c4=O)cc(N4CCN(CC)CC4)cc32)CC1,65
12,C=CCC1(S(=O)(=O)n2cc(C)c3c(C(=O)NCc4c(CCC)cc(C)[nH]c4=O)cc(-c4ccc(N5CCN(C)CC5)nc4)cc32)CC1,262
10,C=CCC1(S(=O)(=O)n2cc(C)c3c(C(=O)NCc4c(OC)cc(C)[nH]c4=O)cc(-c4ccc(CN5CCOCC5)nc4)cc32)CC1,129
9,C=CCC1(S(=O)(=O)n2cc(C)c3c(C(=O)NCc4c(OC)cc(C)[nH]c4=O)cc(-c4ccc(N5CCN(C)CC5)cc4)cc32)CC1,18
9,C=CCC1(S(=O)(=O)n2cc(C)c3c(C(=O)NCc4c(OC)cc(C)[nH]c4=O)cc(-c4cncc(N5CCN(C)CC5)c4)cc32)CC1,46
8,C=CCC1(S(=O)(=O)n2cc(C)c3c(C(=O)NCc4c(OC)cc(C)[nH]c4=O)cc(-c4ccc(CN5CCOCC5)cc4)cc32)CC1,142
5,C=CCC1(S(=O)(=O)n2cc(C)c3c(C(=O)NCc4c(OC)cc(C)[nH]c4=O)cc(-c4ccc(N5CCNCC5)nc4)cc32)CC1,91
5,C=CCC1(S(=O)(=O)n2cc(C)c3c(C(=O)NCc4c(OC)cc(C)[nH]c4=O)cc(-c4cnc(N5CCNCC5)nc4)cc32)CC1,48
